Experimental data: patent publication US12048783B2, “2,4-disubstituted pyridines as malodor counteracting ingredients” (FIRMENICH SA, priority 2017, dated 2024)

Tested on: Olfr740 (indole olfactory receptor)
Experiment: Inhibition of indole-induced activity of olfactory receptor Olfr740 in a stable cell line (FIG. 4 panel b)
Assay type: cell-based, mouse
Conditions: antagonism, dose-dependent decrease of receptor activity, single activating concentration of indole, FIG. 4B, read-out: Olfr742 (text: Olfr740) EC50

EC50: 309 µM
Structure (SMILES): CCCCCc1cc(C)ccn1 [Capsydine]
